Conditions: rat, in vivo

Substance: DDAVP
- uptake in the small intestine: not found the high uptake

— patent EP0873133B1, “BIOLOGICALLY ACTIVE COMPOSITION COMPRISING CYCLOSPORINE” (CAMURUS AB, priority 1995, dated 2002)
